Values quoted from earlier work in patent US20080317886A1, “Compositions for Preventing and Reducing Delayed Onset Muscle Soreness” (priority 2005, published 2008).

For “calcium beta-hydroxy-beta-methylbutyrate [CaHMB]”, the solubility in water is listed as “soluble in water”.
